One substance from patent US20250366743A1, “METHODS AND SYSTEMS FOR ENHANCING BLOOD GLUCOSE REGULATION AND TREATMENT OF DIABETES” (ARIZONA BOARD OF REGENTS ON BEHALF OF THE UNIVERSITY OF …, priority 2016, published 2025) can be followed below.

For this data set the following is noted: rat.

Take insulin: the “peak of insulin appearance in the blood” value (insulin infused through device, day 28 post implantation, same amount of insulin as day 5) is “shifts to the left (faster)”. For the same substance, the insulin release kinetics entry (insulin infused through port of implanted device after vasculature formed around it (28 days post-transplant)) is given as “better”.
